Data reported in patent publication US20140243227A1, “CULTURE MEDIA FOR STEM CELLS” (Koninklijke Nederlandse Akademie van Wetenschappen, priority 2011, published 2014).

Test system: human colon crypts
Assay: Screening of reagents for optimization of human intestinal organoids culture (plating efficiency)
Type: cell-based

CC1=C2C[C@H]3[C@@H](CC=C4C[C@@H](O)CC[C@@]43C)[C@@H]2CC[C@]12O[C@@H]1C[C@H](C)CN[C@H]1[C@H]2C [Cyclopamine]
Activity (plating efficiency compared with control after 4 days culture): 1− (key: 0 = no change; 1+ = <50% increase; 2+ = 50-100% increase; 3+ = >100% increase; 1− = 0-50%; 2− = 50-100% decrease; 3− = >100% decrease)
